Our source for the IC50 values is ChEMBL document CHEMBL5338774, “Quinazoline-2-Carboxamides as Selective PET Radiotracers for Matrix Metalloproteinase-13 Imaging in Atherosclerosis” (J Med Chem, 2023).

Sequences of proteins named here, by UniProt entry; tags and fusion partners are left off. A change or cut given only in a name is not applied to a line headed by its entry.
UniProt P09238: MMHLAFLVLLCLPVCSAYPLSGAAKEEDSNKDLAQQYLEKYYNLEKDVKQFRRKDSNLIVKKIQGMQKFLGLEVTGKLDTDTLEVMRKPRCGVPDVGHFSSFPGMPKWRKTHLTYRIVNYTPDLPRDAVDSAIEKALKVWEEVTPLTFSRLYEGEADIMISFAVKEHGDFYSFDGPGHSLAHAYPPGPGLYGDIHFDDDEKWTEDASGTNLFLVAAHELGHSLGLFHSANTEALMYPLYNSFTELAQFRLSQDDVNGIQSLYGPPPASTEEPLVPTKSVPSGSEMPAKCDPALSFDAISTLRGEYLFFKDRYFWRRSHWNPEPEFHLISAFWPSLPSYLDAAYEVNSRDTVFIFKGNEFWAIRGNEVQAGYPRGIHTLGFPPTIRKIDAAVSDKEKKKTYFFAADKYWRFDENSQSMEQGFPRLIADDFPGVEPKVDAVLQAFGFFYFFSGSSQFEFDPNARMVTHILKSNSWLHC

The structures appear in SMILES notation.

What is called IC50 is the point on the concentration scale where inhibition reaches its midpoint.

In this test the target is Stromelysin-2 (Homo sapiens, UniProt P09238). The test is described as follows: Inhibition of human recombinant MMP-10 using […]-Pro-Lys-Pro-Val-Glu-Nval-Trp-Arg-Lys(Dnp)-NH2 as substrate preincubated for 30 mins followed by substrate addition by fluorescence based analysis.

Regarding `CNC(=O)[C@@H](NC(=O)[C@H](CC(C)C)[C@H](O)C(=O)NO)C(C)(C)C`, the IC50 worked out at 69 nM.
